Target: T1, 17-beta-hydroxysteroid dehydrogenase type 1 (Homo sapiens) (UniProt P14061)
T1 sequence (whole entry): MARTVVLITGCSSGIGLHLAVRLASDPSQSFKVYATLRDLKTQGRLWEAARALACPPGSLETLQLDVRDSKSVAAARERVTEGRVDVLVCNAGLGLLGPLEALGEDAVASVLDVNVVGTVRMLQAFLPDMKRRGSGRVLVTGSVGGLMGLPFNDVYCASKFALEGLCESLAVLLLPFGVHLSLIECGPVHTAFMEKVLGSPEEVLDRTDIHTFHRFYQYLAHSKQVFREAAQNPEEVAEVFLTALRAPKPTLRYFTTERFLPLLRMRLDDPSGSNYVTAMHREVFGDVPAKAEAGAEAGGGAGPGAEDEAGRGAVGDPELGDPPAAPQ
Assay: Inhibition of 17beta-HSD1 expressed in intact human T47D cells at 10 uM after 30 mins
Assay type: cell-based

- inhibition: 89%
Compound: CC(=O)c1ccc(-c2ccc(O)cc2C)cc1

— ChEMBL document CHEMBL1144736, “Novel inhibitors of 17beta-hydroxysteroid dehydrogenase type 1: templates for design” (Bioorg Med Chem, 2008)
